Assay results taken from patent US9458113B2 (Boehringer Ingelheim International GmbH, priority 2014, dated 2016).

Amino acid sequences for entries named in this document (tags omitted). Residues count along the entry.
UniProt P08246, 30-247 limits assumed: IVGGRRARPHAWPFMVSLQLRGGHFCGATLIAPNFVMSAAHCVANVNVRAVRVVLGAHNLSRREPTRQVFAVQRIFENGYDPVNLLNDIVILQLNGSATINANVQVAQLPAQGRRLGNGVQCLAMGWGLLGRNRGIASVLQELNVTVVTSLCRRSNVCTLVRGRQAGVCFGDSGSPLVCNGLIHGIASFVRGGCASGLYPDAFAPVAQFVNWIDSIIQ

Target: Human neutrophil elastase (Homo sapiens (Human), UniProt P08246)
Assay: Human Neutrophil Elastase Assay
Details: substrate MeOSuc-Ala-Ala-Pro-Val-AMC 250 μM, pH 7.5

With `CNC(=O)c1cc(C#N)ccc1C1C2=C(CCC2=O)N(c2cccc(C(F)(F)F)c2)C(=O)N1C` (centres unmarked) the IC50 was 6.9 nM.
`CN1C(=O)N(c2cccc(C(F)(F)F)c2)C2=C(C(=O)CC2)C1c1ccc(C#N)cc1C(=O)NC1C2CC1C2` (centres unmarked) showed an IC50 of 6.6 nM.
